{
  "source": "BindingDB's records for doi:10.1016/j.bmcl.2010.05.078",
  "about": "(University of Arizona, 2010)",
  "test": "Agonist activity at delta opioid receptor in mouse vas deferens assessed as inhibition of electrically-stimulated muscle contraction",
  "note": "pIC50: −log10 of the molar value.",
  "data": [
    {"smiles": "Cc1cc(O)cc(C)c1C[C@H](N)C(=O)N1CC(=O)N[C@@H](Cc2cnc[nH]2)C(=O)N[C@H](Cc2ccccc2)C(=O)N[C@@H](CCCN=C(N)N)C(=O)N[C@@H](Cc2c[nH]c3ccccc23)C(=O)N[C@H](C(=O)N[C@@H](CC(=O)O)C(=O)N[C@@H](Cc2ccccc2)C(N)=O)CSSC[C@@H](N)C1=O", "note": "[(S)-3-((4R,7S,10S,13R,16S,22S)-16-((1H-imidazol-5-yl)methyl)-7-((1H-indol-3-yl)methyl)-22-amino-20-((S)-2-amino-3-(4-hydroxy-2,6-dimethylphenyl)propanoyl)-13-benzyl-10-(3-guanidinopropyl)-6,9,12,15,18,21-hexaoxo-1,2-dithia-5,8,11,14,17,20-hexaazacyclotricosane-4-carboxamido)-4-((S)-1-amino-1-oxo-3-phenylpropan-2-ylamino)-4-oxobutanoic acid]", "values": [
      {"measurement": "pIC50", "value": 6.39}
    ]}
  ]
}
